Experimental findings from US6936585B2, “Corticotropin releasing factor 2 receptor agonists” (priority 2002, dated 2005) are described below.

SMILES strings stand for the structures.

In experiment [1] the target is T1, CRF1R (Homo sapiens, UniProt P34998).
T1 sequence (P34998 24-415): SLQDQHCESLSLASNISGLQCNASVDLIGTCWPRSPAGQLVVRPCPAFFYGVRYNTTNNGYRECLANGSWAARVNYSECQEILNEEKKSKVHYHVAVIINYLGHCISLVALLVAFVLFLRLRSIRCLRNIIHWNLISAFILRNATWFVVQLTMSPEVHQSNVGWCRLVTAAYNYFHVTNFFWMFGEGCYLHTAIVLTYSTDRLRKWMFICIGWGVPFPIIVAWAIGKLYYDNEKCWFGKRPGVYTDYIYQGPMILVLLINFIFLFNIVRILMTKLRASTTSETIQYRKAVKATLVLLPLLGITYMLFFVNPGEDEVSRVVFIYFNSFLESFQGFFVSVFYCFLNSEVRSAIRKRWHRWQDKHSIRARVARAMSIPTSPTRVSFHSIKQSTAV
Kind of experiment: CRF1R agonist activation (EC50 / Emax), called comparative CRF binding. It counts as cell-based. Conditions: for EC50: CRF1R EC50; for Emax: read-out: CRF1R Emax. Summed up:
(§1)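 Receptor-expressing cells are contacted with test peptide or the vehicle it is dissolved in. Lysates are then assayed for cAMP, or expression of a CRE-coupled reporter is quantitated. Engineered cells carrying receptor-G-protein fusions may replace full-length receptors.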

The target of experiment [2] is T2, CRF2R (Homo sapiens, UniProt Q13324).
T2 sequence (Q13324 1-411): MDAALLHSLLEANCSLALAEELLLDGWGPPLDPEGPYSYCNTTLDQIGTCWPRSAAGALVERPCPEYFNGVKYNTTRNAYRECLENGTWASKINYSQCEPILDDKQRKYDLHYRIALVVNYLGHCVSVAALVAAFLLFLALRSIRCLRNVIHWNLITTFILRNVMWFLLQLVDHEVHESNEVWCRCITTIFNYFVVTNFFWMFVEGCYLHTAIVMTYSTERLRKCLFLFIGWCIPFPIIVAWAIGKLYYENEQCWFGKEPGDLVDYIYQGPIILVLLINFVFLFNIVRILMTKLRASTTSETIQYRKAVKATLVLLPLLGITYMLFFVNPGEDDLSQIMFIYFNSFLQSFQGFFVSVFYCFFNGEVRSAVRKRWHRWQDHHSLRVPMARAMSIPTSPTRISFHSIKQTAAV
Kind of experiment: CRF2R agonist activation (EC50 / Emax), called comparative CRF binding. It counts as cell-based. Conditions: for Emax: read-out: CRF2R Emax. Summed up:
as §1

Regarding `CC[C@H](C)[C@H](NC(=O)[C@@H](NC(=O)[C@H](CC(=O)O)NC(=O)[C@H](CC(C)C)NC(=O)[C@H](CC(C)C)NC(=O)[C@H](CC(C)C)NC(=O)[C@H](CCCNC(=N)N)NC(=O)[C@H](CC(N)=O)NC(=O)[C@H](CC(N)=O)NC(=O)[C@H](C)NC(=O)[C@H](C)NC(=O)[C@H](CCC(N)=O)NC(=O)[C@H](CCC(N)=O)NC(=O)[C@H](CCCCN)NC(=O)[C@H](CCC(=O)O)NC(=O)[C@H](CCCCN)NC(=O)[C@H](CCC(=O)O)NC(=O)[C@H](CCC(N)=O)NC(=O)[C@H](CCCCN)NC(=O)[C@H](CCC(=O)O)NC(=O)[C@@H](NC(=O)[C@H](CCC(=O)O)NC(=O)[C@@H](NC(=O)[C@H](CCSC)NC(=O)[C@H](CCCCN)NC(=O)[C@H](CCCNC(=N)N)NC(=O)[C@H](CC(C)C)NC(=O)[C@H](CC(C)C)NC(=O)[C@H](Cc1c[nH]cn1)NC(=O)[C@H](Cc1c[nH]cn1)NC(=O)[C@@H]1CCCN1C(=O)[C@H](CC(C)C)NC(=O)[C@H](CC(=O)O)NC(=O)[C@@H](NC(=O)[C@H](CO)NC(=O)[C@@H](NC(=O)[C@@H]1CCCN1C(=O)[C@@H]1CCCN1C(=O)CNC(=O)[C@@H]1CCC(=O)N1)[C@@H](C)CC)[C@@H](C)CC)[C@@H](C)CC)[C@@H](C)CC)[C@@H](C)O)C(N)=O` [compound 205], in experiment [1], a half-maximal response (EC50) required 126 nM and the Emax was 88%. Also, in experiment [2], a half-maximal effect (EC50) was put at 25 nM and the Emax stood at 93%.
Turning to `CC[C@H](C)[C@H](NC(=O)[C@@H](NC(=O)[C@H](CC(=O)O)NC(=O)[C@H](CC(C)C)NC(=O)[C@H](CC(C)C)NC(=O)[C@H](CC(C)C)NC(=O)[C@H](CCCNC(=N)N)NC(=O)[C@H](CC(N)=O)NC(=O)[C@H](CC(N)=O)NC(=O)[C@H](C)NC(=O)[C@H](C)NC(=O)[C@H](CCC(N)=O)NC(=O)[C@H](CCC(N)=O)NC(=O)[C@H](CCCCN)NC(=O)[C@H](CCC(=O)O)NC(=O)[C@H](CCCCN)NC(=O)[C@H](CCC(=O)O)NC(=O)[C@H](CCC(N)=O)NC(=O)[C@H](CCCCN)NC(=O)[C@H](CCC(=O)O)NC(=O)[C@@H](NC(=O)[C@H](CCC(=O)O)NC(=O)[C@@H](NC(=O)[C@H](CCSC)NC(=O)[C@H](CCCCN)NC(=O)[C@H](CCCNC(=N)N)NC(=O)[C@H](CC(C)C)NC(=O)[C@H](CC(C)C)NC(=O)[C@H](CC(C)C)NC(=O)[C@H](CC(C)C)NC(=O)[C@@H]1CCCN1C(=O)[C@H](CC(C)C)NC(=O)[C@H](CC(=O)O)NC(=O)[C@@H](NC(=O)[C@H](CO)NC(=O)[C@@H](NC(=O)[C@@H]1CCCN1C(=O)[C@@H]1CCCN1C(=O)CNC(=O)[C@@H]1CCC(=O)N1)[C@@H](C)CC)[C@@H](C)CC)[C@@H](C)CC)[C@@H](C)CC)[C@@H](C)O)C(N)=O` [compound 188], the results for the maximum response (Emax) in experiment [1] and in experiment [2] were 96% and 100%, respectively.
The like results for `CC[C@H](C)[C@H](NC(=O)[C@@H](NC(=O)[C@H](C)NC(=O)[C@H](CC(C)C)NC(=O)[C@H](CC(C)C)NC(=O)[C@H](CC(C)C)NC(=O)[C@H](C)NC(=O)[C@H](CC(N)=O)NC(=O)[C@H](CC(N)=O)NC(=O)[C@H](C)NC(=O)[C@H](C)NC(=O)[C@H](CCC(N)=O)NC(=O)[C@H](CCC(N)=O)NC(=O)[C@H](CCCCN)NC(=O)[C@H](CCC(=O)O)NC(=O)[C@H](CCCCN)NC(=O)[C@H](CCC(=O)O)NC(=O)[C@H](CCC(N)=O)NC(=O)[C@H](CCCCN)NC(=O)[C@H](CCC(=O)O)NC(=O)[C@@H](NC(=O)[C@H](CCC(=O)O)NC(=O)[C@@H](NC(=O)[C@H](CCSC)NC(=O)[C@H](CCCCN)NC(=O)[C@H](CCCNC(=N)N)NC(=O)[C@H](CC(C)C)NC(=O)[C@H](CC(C)C)NC(=O)[C@H](Cc1c[nH]cn1)NC(=O)[C@H](Cc1ccccc1)NC(=O)[C@@H]1CCCN1C(=O)[C@H](CC(C)C)NC(=O)[C@H](CC(=O)O)NC(=O)[C@@H](NC(=O)[C@H](CO)NC(=O)[C@@H](NC(=O)[C@@H]1CCCN1C(=O)[C@@H]1CCCN1C(=O)CNC(=O)[C@@H]1CCC(=O)N1)[C@@H](C)CC)[C@@H](C)CC)[C@@H](C)CC)[C@@H](C)CC)[C@@H](C)O)C(N)=O` [compound 229] were, in that order, 100% and 100%.
For the compound `CC[C@H](C)[C@H](NC(=O)[C@@H](NC(=O)[C@H](CC(=O)O)NC(=O)[C@H](CC(C)C)NC(=O)[C@H](CC(C)C)NC(=O)[C@H](CC(C)C)NC(=O)[C@H](CCCNC(=N)N)NC(=O)[C@H](CC(N)=O)NC(=O)[C@H](CC(N)=O)NC(=O)[C@H](C)NC(=O)[C@H](C)NC(=O)[C@H](CCC(N)=O)NC(=O)[C@H](CCC(N)=O)NC(=O)[C@H](CCCCN)NC(=O)[C@H](CCC(=O)O)NC(=O)[C@H](CCCCN)NC(=O)[C@H](CCC(=O)O)NC(=O)[C@H](CCC(N)=O)NC(=O)[C@H](CCCCN)NC(=O)[C@H](CCC(=O)O)NC(=O)[C@@H](NC(=O)[C@H](CCC(=O)O)NC(=O)[C@@H](NC(=O)[C@H](CCSC)NC(=O)[C@H](CCCCN)NC(=O)[C@H](CCCNC(=N)N)NC(=O)[C@H](CC(C)C)NC(=O)[C@H](CC(C)C)NC(=O)[C@@H](NC(=O)[C@H](Cc1ccc(O)cc1)NC(=O)[C@@H]1CCCN1C(=O)[C@H](CC(C)C)NC(=O)[C@H](CC(=O)O)NC(=O)[C@@H](NC(=O)[C@H](CO)NC(=O)[C@@H](NC(=O)[C@@H]1CCCN1C(=O)[C@@H]1CCCN1C(=O)CNC(=O)[C@@H]1CCC(=O)N1)[C@@H](C)CC)[C@@H](C)CC)[C@@H](C)O)[C@@H](C)CC)[C@@H](C)CC)[C@@H](C)O)C(N)=O` [compound 200], in experiment [1], a half-maximal effect (EC50) was put at 189 nM and the Emax amounted to 99%. Further, in experiment [2], a half-maximal response (EC50) required 8.8 nM and the Emax turned out to be 100%.
As to `CC[C@H](C)[C@H](NC(=O)[C@@H](NC(=O)[C@H](CC(=O)O)NC(=O)[C@H](CC(C)C)NC(=O)[C@H](CC(C)C)NC(=O)[C@H](CC(C)C)NC(=O)[C@H](CCCNC(=N)N)NC(=O)[C@H](CC(N)=O)NC(=O)[C@H](CC(N)=O)NC(=O)[C@H](C)NC(=O)[C@H](C)NC(=O)[C@H](CCC(N)=O)NC(=O)[C@H](CCC(N)=O)NC(=O)[C@H](CCCCN)NC(=O)[C@H](CCC(=O)O)NC(=O)[C@H](CCCCN)NC(=O)[C@H](CCC(=O)O)NC(=O)[C@H](CCC(N)=O)NC(=O)[C@H](CCCCN)NC(=O)[C@H](CCC(=O)O)NC(=O)[C@@H](NC(=O)[C@H](CCC(=O)O)NC(=O)[C@@H](NC(=O)[C@H](CCSC)NC(=O)[C@H](CCCCN)NC(=O)[C@H](CCCNC(=N)N)NC(=O)[C@H](CC(C)C)NC(=O)[C@H](CC(C)C)NC(=O)[C@H](Cc1ccc(O)cc1)NC(=O)[C@H](CCC(=O)O)NC(=O)[C@@H]1CCCN1C(=O)[C@H](CC(C)C)NC(=O)[C@H](CC(=O)O)NC(=O)[C@@H](NC(=O)[C@H](CO)NC(=O)[C@@H](NC(=O)[C@@H]1CCCN1C(=O)[C@@H]1CCCN1C(=O)CNC(=O)[C@@H]1CCC(=O)N1)[C@@H](C)CC)[C@@H](C)CC)[C@@H](C)CC)[C@@H](C)CC)[C@@H](C)O)C(N)=O` [compound 48], the Emax in experiment [1] came out at 21%; in experiment [2], 14%.

Usually EC50 stands for the concentration that produces a half-maximal response. A lower EC50 goes with higher potency in that assay. The Emax is the maximal effect, on the per cent scale that the assay sets.
